# Source: PubChem BioAssay AID430 (Sanford-Burnham Center for Chemical Genomics, 2006)
# Only a part is listed here, and it is no random draw. Results with a measured potency or affinity are listed apart. Active and inactive are the calls of the source. No stated cut-off is given here; in the data, active means cytotoxicity above about 50%; inactive means the rest.
# Assay: cytotoxicity in HPDE-C7 cells, cell-based, fluorescence, HTS (AID 430);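 further: cells exposed to compound for 48 hours before viability readout; 0% = vehicle and 100% = reference cytotoxic drug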
# Settings: HPDE-C7 pancreatic duct cells viability, at 10 µM, active compounds read high
row,SMILES,cytotoxicity
1,Cc1nn(-c2ccccc2)c2c1P(=O)(N1CCOCC1)N(C)C(c1ccccc1)=N2 (stereo not drawn),inactive: -4.7%
2,O=P1(Nc2ccc(Br)cn2)COc2ccccc2OC1,inactive: -21.1%
3,Cc1ccc(OCC(=O)OC2CN3CCC2CC3)cc1 (stereo not drawn),inactive: -12.6%
4,O=P1(Nc2ncccn2)COc2ccccc2OC1,inactive: -6.4%
5,Clc1n[nH]nc1-c1nn[nH][15n]1,inactive: 2.3%
6,O=P1(Nc2ccccn2)COc2ccccc2OC1,inactive: -22.8%
7,Cc1cccc(OCC(=O)OC2CN3CCC2CC3)c1 (stereo not drawn),inactive: -15.4%
8,CCOP1(=S)c2c(C)nn(CCC#N)c2N=C(c2ccccc2F)N1C (stereo not drawn),inactive: -11.5%
9,O=P(Nc1nccs1)(c1ccccc1)c1nc2ccccc2s1 (stereo not drawn),inactive: -7.9%
10,CCOP1(=S)c2c(C)nn(CCC#N)c2N=C(c2ccc(F)cc2)N1C (stereo not drawn),inactive: 2.8%
11,O=C(COc1ccccc1)OC1CN2CCC1CC2 (stereo not drawn),inactive: 3.7%
12,COP1(=S)c2c(C)nn(CCC#N)c2N=C(c2ccc(F)cc2)N1C (stereo not drawn),inactive: -12.8%
13,Cc1c2non([O-])c-2c(C)[n+](=O)[n+]1[O-],inactive: 0.9%
14,COC(=O)c1cc2c(s1)N=C(c1ccccc1)N(C)P2(=O)N1CCOCC1 (stereo not drawn),inactive: 1%
15,O=P1(Nc2nc3ccc(Cl)cc3s2)COc2ccccc2O1 (stereo not drawn),inactive: -18.3%
16,c1nnnn1CCn1cnnn1,inactive: -27.6%
17,O=P(Nc1nccs1)(c1ccccc1)c1ccccc1,inactive: 14.7%
18,O=C(OC1CN2CCC1CC2)c1cccc(Cl)c1 (stereo not drawn),inactive: -12.7%
